For 83 molecules, inhibition results are on record in PubChem BioAssay AID1236 (Emory University Molecular Libraries Screening Center, 2008).

The entries are a selection whose mix differs from that of the whole data set. Some salts or complexes appear as unconnected parts, following the source record. Calls of active or inactive are those of the source.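 Rule for the calls: active = inhibition above about 50% (limit read from the data); inactive = the rest.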

In the assay the test system is calpain II (m-calpain), Sus scrofa. As to the kind of experiment: inhibitors of pig calpain II, primary screen, biochemical, fluorogenic peptide substrate, 1536-well (AID 1236). Particulars: purified calpain II, 30 min, at 16 µM, active compounds read high.
On to `CCN(CC)CCCOC(=O)C(O)(c1ccccc1)C1CCCCC1` (stereo not drawn), for which the inhibition (usually the relative decrease from the control value, in per cent) was inactive: -9.65%.

For the molecule `CP(=O)(Nc1ccccc1)Oc1ccc(F)cc1` (stereo not drawn), the inhibition is inactive: -2.74%.

Turning to `CCCCCOc1ccc(NP(C)(=O)Oc2ccc(Cl)cc2Cl)cc1` (stereo not drawn), the inhibition is active: 50.9%.

Turning to `CCOC(=O)c1ccc(NP(C)(=O)Oc2ccc(F)cc2)cc1` (stereo not drawn), the inhibition is inactive: 14.3%.

With `COc1ccc(OP(C)(=O)Nc2ccc(SC(F)(F)F)cc2)cc1` (stereo not drawn), the inhibition was inactive: 29.2%.

Turning to `O=C(OC1CN2CCC1CC2)c1ccc([N+](=O)[O-])cc1` (stereo not drawn), the inhibition was inactive: 28.7%.

`O=C(OCCN1CCN(CCOCc2ccccc2)CC1)C(O)(c1ccccc1)c1ccccc1`: the inhibition is inactive: -4.24%.

As to `COc1ccc2c(c1O)-c1c(O)c(OC)cc3c1[C@H](C2)[N+](C)(C)CC3.O=[N+]([O-])c1cc([N+](=O)[O-])c([O-])c([N+](=O)[O-])c1[O-]`, the inhibition was inactive: -283%.

In the case of `CP(=O)(Nc1ccccc1F)Oc1ccccc1` (stereo not drawn), the inhibition is inactive: 23%.

For `CC(C)c1ccc(OP(C)(=O)Nc2ccc(SC(F)(F)F)cc2)cc1` (stereo not drawn), the inhibition was inactive: 4.74%.

Consider `CP(=O)(Nc1ccc2c(c1)OCCO2)Oc1ccccc1` (stereo not drawn), for which the inhibition was inactive: 29.4%.

Regarding `Cc1ccccc1NP(C)(=O)Nc1ccccc1C`, the inhibition is inactive: -32%.

For `CP(=O)(Nc1ccc(SC(F)(F)F)cc1)Oc1ccc(F)cc1` (stereo not drawn), the inhibition was inactive: 2.09%.

As for `CCOP(C)(=S)SCC(=O)NC(C)(CC)C(=O)O` (stereo not drawn), the inhibition was inactive: -13.7%.

Turning to `O=[N+]([O-])c1ccc(OP2(=O)COCCO2)cc1` (stereo not drawn), the inhibition is inactive: -6.58%.

With `Cc1cc(-c2cccc3ccccc23)c(C)cn1.O=[N+]([O-])c1cc([N+](=O)[O-])c(O)c([N+](=O)[O-])c1`, the inhibition is inactive: 18.6%.

Consider `O=[N+]([O-])c1cc([N+](=O)[O-])c(NCC2CCS(=O)(=O)C2)c([N+](=O)[O-])c1` (stereo not drawn), for which the inhibition was inactive: -5.1%.

Turning to `COc1ccc(OP(C)(=O)Nc2cccc(Br)c2)cc1` (stereo not drawn), the inhibition was inactive: 20.2%.

In the case of `CN(C)CCOC(=O)C(O)(c1ccccc1)C1CCCCC1` (stereo not drawn), the inhibition was inactive: -0.31%.

Regarding `COc1ccc(NP(C)(=O)Oc2ccccc2OC)cc1` (stereo not drawn), the inhibition was inactive: 6.08%.

With `CCOC(=O)c1ccc(NP(C)(=O)Oc2ccc(Cl)cc2)cc1` (stereo not drawn), the inhibition is inactive: 15.5%.

As to `CP(=O)(OC12CC3CC(CC(C3)C1)C2)OC12CC3CC(CC(C3)C1)C2`, the inhibition was inactive: 22.7%.

Take `CC(C)(C)c1ccc(OP(C)(=O)O)cc1`: the inhibition is inactive: -25.3%.

With `COc1ccccc1OP(C)(=O)Nc1ccccc1Br` (stereo not drawn), the inhibition was inactive: 2.56%.

Take `CP(=O)(Nc1ccc(Cl)cc1)Oc1ccc(F)cc1` (stereo not drawn): the inhibition is inactive: -23.5%.

Turning to `CN(C)C(=O)c1c([N+](=O)[O-])cc([N+](=O)[O-])cc1[N+](=O)[O-]`, the inhibition is inactive: -35.4%.

As to `CCN(CC)CC(O)COC(=O)C(O)(c1ccccc1)C1CCCCC1` (stereo not drawn), the inhibition was inactive: 30.6%.

Regarding `COc1ccc(OP(C)(=O)Nc2ccc(Br)cc2)cc1` (stereo not drawn), the inhibition is inactive: 22.6%.

For the molecule `O=C(OCCCN1CCCC1)C(O)(c1ccccc1)C1CCCCC1` (stereo not drawn), the inhibition was inactive: 30.5%.

On to `CP(=O)(Oc1ccccc1)N1CCOC1=O` (stereo not drawn), for which the inhibition was inactive: 5.89%.

On to `CCc1ccc(OP(C)(=O)Nc2cccnc2)cc1` (stereo not drawn), for which the inhibition is inactive: 6.62%.

For the molecule `O=[N+]([O-])c1cc([N+](=O)[O-])c(Nc2ccccn2)c([N+](=O)[O-])c1`, the inhibition was inactive: -15.4%.

For the molecule `Cc1c(NP(C)(=O)Oc2ccc(C(C)C)cc2)c(=O)n(-c2ccccc2)n1C` (stereo not drawn), the inhibition was inactive: -24.3%.

For the molecule `CP(=O)(Nc1ccccn1)Oc1ccccc1` (stereo not drawn), the inhibition is inactive: -9.35%.

With `COc1ccccc1OP(C)(=O)Nc1ccc(C)cc1C` (stereo not drawn), the inhibition was inactive: 9.28%.

With `CCc1ccc(OP(C)(=O)O)cc1`, the inhibition is inactive: 2.55%.

Turning to `COc1ccccc1OP(C)(=O)Nc1ccc(Br)cc1` (stereo not drawn), the inhibition was inactive: -6.9%.

Consider `COc1ccc(OP(C)(=O)Nc2ccccn2)cc1` (stereo not drawn), for which the inhibition was inactive: 0.82%.

Regarding `CN(C)CCOC(=O)C(O)(c1ccccc1)C1CCCC1` (stereo not drawn), the inhibition was inactive: 11.2%.

Take `Cc1nc2ccc3ccccc3c2o1.O=[N+]([O-])c1cc([N+](=O)[O-])c(O)c([N+](=O)[O-])c1`: the inhibition was inactive: -8.27%.

Take `CP(=O)(OCCOc1ccccc1)OCCOc1ccccc1`: the inhibition was inactive: -18.9%.

`CP(=O)(Nc1ccc(Cl)cc1Cl)Oc1ccccc1` (stereo not drawn): the inhibition is inactive: -1.73%.

Regarding `Cc1cc(C)cc(OP(C)(=O)Nc2cccc(C(F)(F)F)c2)c1` (stereo not drawn), the inhibition was inactive: 16.1%.

As to `COc1ccccc1OP(C)(=O)Nc1ccc(C)c(C)c1` (stereo not drawn), the inhibition was inactive: 21.1%.

Regarding `COc1ccc(OP(C)(=O)Nc2ccccc2Br)cc1` (stereo not drawn), the inhibition was inactive: 22.1%.

With `COc1ccccc1OP(C)(=O)Nc1ccc(C)cc1` (stereo not drawn), the inhibition was inactive: 13.9%.

Regarding `Cc1ccc(NP(C)(=O)Oc2ccccc2)c(C)c1` (stereo not drawn), the inhibition is inactive: -17%.

Regarding `CCOC(=O)c1ccc(NP(C)(=O)Oc2ccccc2)cc1` (stereo not drawn), the inhibition was inactive: -4.93%.

For `Cc1cc(C)cc(OP(C)(N)=O)c1` (stereo not drawn), the inhibition is inactive: 7.5%.

For the molecule `COc1ccccc1OP(C)(=O)Nc1cc(Cl)ccc1C` (stereo not drawn), the inhibition is inactive: -7.26%.

As to `COc1ccc(OP(C)(=O)Nc2cccc(F)c2)cc1` (stereo not drawn), the inhibition was inactive: 14.5%.

As to `O=[N+]([O-])c1ccc2c(c1)C=Nc1ccccc1O2`, the inhibition was inactive: 14.6%.

With `CC(C)(C)c1ccc(OP(C)(=O)Nc2ccc(SC(F)(F)F)cc2)cc1` (stereo not drawn), the inhibition is inactive: 11.2%.

Turning to `Cc1cccc(C)c1OP(C)(N)=O` (stereo not drawn), the inhibition is inactive: -2.05%.

For `CCN(CC)CCCOC(=O)C(O)(c1ccccc1)c1ccccc1`, the inhibition was inactive: -16%.

For the molecule `CCOC(=O)c1ccc(NP(C)(=O)Oc2ccc(OC)cc2)cc1` (stereo not drawn), the inhibition was inactive: -9.27%.

For the molecule `CCOP(C)(=S)SCC(=O)NC(C)C(=O)O` (stereo not drawn), the inhibition is inactive: -9.81%.

`CP(=O)(Nc1ccccn1)Oc1ccc(Cl)cc1` (stereo not drawn): the inhibition was inactive: 10.8%.

On to `CP(=O)(Nc1ccc(SC(F)(F)F)cc1)Oc1ccc(Cl)cc1` (stereo not drawn), for which the inhibition was inactive: 8.59%.

Take `Cc1cccc(C)c1OP(C)(=O)Nc1ccc(SC(F)(F)F)cc1` (stereo not drawn): the inhibition was inactive: 31.3%.

Regarding `CP(=O)(Oc1ccccc1)OC(c1ccccc1)C(F)(F)F` (stereo not drawn), the inhibition is inactive: 33.2%.

Regarding `CCc1ccc(OP(C)(=O)N2CCN(c3ccc([N+](=O)[O-])cc3)CC2)cc1` (stereo not drawn), the inhibition was inactive: 17.4%.

Turning to `CP(=O)(NC(=O)Nc1ccccc1)Oc1ccccc1` (stereo not drawn), the inhibition was inactive: -15.8%.

In the case of `Cc1cc(C)cc(OP(C)(=O)Nc2ccc(SC(F)(F)F)cc2)c1` (stereo not drawn), the inhibition is inactive: 41.4%.

As to `CP(=S)(Nn1cnnc1)Oc1ccccc1` (stereo not drawn), the inhibition is inactive: 13.8%.

Regarding `CP(=O)(Nc1ccccc1Br)Oc1ccccc1` (stereo not drawn), the inhibition is inactive: 11.4%.

With `COc1ccccc1OP(C)(=O)Nc1ccccc1` (stereo not drawn), the inhibition is inactive: -33%.

In the case of `CN1CCCCC1COC(=O)C1(O)c2ccccc2CCc2ccccc21` (stereo not drawn), the inhibition is inactive: 1%.

Consider `COc1ccccc1OP(C)(=O)Nc1c(C)cccc1C` (stereo not drawn), for which the inhibition is inactive: -11.8%.

With `CP(=O)(Nc1ccc(SC(F)(F)F)cc1)Oc1ccccc1` (stereo not drawn), the inhibition was inactive: -2.43%.

With `CCCOc1ccc(NP(C)(=O)Oc2ccc(Cl)cc2)cc1` (stereo not drawn), the inhibition was inactive: 15.5%.

Regarding `O=[N+]([O-])c1cc([N+](=O)[O-])c(Nc2nnnn2CCO)c([N+](=O)[O-])c1`, the inhibition is inactive: 8.78%.

With `CCOC(=O)C(CC)C1=NC(C)(C)Cc2ccccc21.O=[N+]([O-])c1cc([N+](=O)[O-])c(O)c([N+](=O)[O-])c1` (stereo not drawn), the inhibition is inactive: 2.87%.

`Cc1nc2ccc3ccccc3c2s1.O=[N+]([O-])c1cc([N+](=O)[O-])c(O)c([N+](=O)[O-])c1`: the inhibition was inactive: 14.3%.

Turning to `O=[N+]([O-])c1cc([N+](=O)[O-])c(-n2nnc3ccccc32)c([N+](=O)[O-])c1`, the inhibition is inactive: -5.37%.

As to `Cc1ccc(C)c(NP(C)(=O)Oc2ccccc2)c1` (stereo not drawn), the inhibition was inactive: 9.09%.

As to `CP(=O)(Nc1cccc(Br)c1)Oc1ccccc1` (stereo not drawn), the inhibition is active: 78.4%.

For `Cc1cc(C)cc(OP(C)(=O)Nc2ccccn2)c1` (stereo not drawn), the inhibition is inactive: -20%.

`COc1ccccc1OP(C)(=O)Nc1cccc(Br)c1` (stereo not drawn): the inhibition was inactive: 19.6%.

For `CCOC(=O)c1ccc(NP(C)(=O)Oc2cc(C)cc(C)c2)cc1` (stereo not drawn), the inhibition was inactive: 13.6%.

For the molecule `Cc1cc(C)cc(OP(C)(=O)Nc2ccc(C)cc2C)c1` (stereo not drawn), the inhibition is inactive: -0.37%.

As for `CC1=NCCc2c1[nH]c1ccccc21.O=[N+]([O-])c1cc([N+](=O)[O-])c(O)c([N+](=O)[O-])c1`, the inhibition is inactive: -120%.

On to `O=C(O)c1cccc(Nc2c([N+](=O)[O-])cc([N+](=O)[O-])cc2[N+](=O)[O-])c1`, for which the inhibition is inactive: 20.3%.
